In article PMC2912288 (International journal of pharmaceutics, 2010):

What was measured:
ASBT-MDCK monolayers = details: for passive permeability / Pp ×10^6(cm/s): absence of sodium; for passive permeability: ASBT-MDCK; for Pp ×10^6(cm/s): passive permeability, mean (±SEM) of three measurements; for passive permeability share of total prodrug uptake: when [S] = ½ Kt
[1] = Caco-2 homogenate; for Percent ketoprofen released / Percent niacin released: 4 hr, 37°C
[2] = for Percent ketoprofen released: liver S9, 4 hr, 37°C

Row | Substance | passive permeability (ASBT-MDCK monolayers) [nm/s] | passive permeability relative to CDCA-lysine-niacin (ASBT-MDCK monolayers; higher) [fold] | Pp ×10^6(cm/s) (ASBT-MDCK monolayers) | passive permeability share of total prodrug uptake (ASBT-MDCK monolayers) [%] | Percent ketoprofen released ([1]; 1 μM CDCA-lysine-ketoprofen) [%] | Percent ketoprofen released ([1]; 5 μM CDCA-lysine-ketoprofen) [%] | Percent ketoprofen released ([2]; 1 μM CDCA-lysine-ketoprofen) [%] | Percent ketoprofen released ([2]; 1 μM CDCA-lysine-ketoprofen, listed as ketoprofen prodrug) [%] | Percent ketoprofen released ([2]; 5 μM CDCA-lysine-ketoprofen) [%] | Percent ketoprofen released ([2]; 5 μM CDCA-lysine-ketoprofen, listed as ketoprofen prodrug) [%] | Percent niacin released ([1]; 1 μM CDCA-lysine-niacin) [%] | Percent niacin released ([1]; 1 μM CDCA-lysine-niacin, listed as niacin prodrug) [%] | Percent niacin released ([1]; 5 μM CDCA-lysine-niacin) [%] | Percent niacin released ([1]; 5 μM CDCA-lysine-niacin, listed as niacin prodrug) [%] | prodrug degradation ([1]; niacin prodrug, after 4 hr) [%] | prodrug degraded ([2]; 1 μM niacin prodrug, liver homogenate, after 4 hr)
1 | CDCA-lysine-ketoprofen | 63.8 | 20 | 6.38(±0.44) ×10^6(cm/s) | 44.1 | 5.94 | 3.73 | 24.5 | 24.5 | 12.2 | 12.2 |  |  |  |  |  | 
2 | CDCA-lysine-niacin | 3.67 |  | 0.367(±0.023) ×10^6(cm/s) | 10.3 |  |  |  |  |  |  | 69.4 | 69.4 | 26.9 | 26.9 | 41.7 | About 30.3%

Where two headings read alike, the source gives them in different places.
